Test results from patent US20230144528A1, “CDK Inhibitors And Their Use As Pharmaceuticals” (Prelude Therapeutics Incorporated, priority 2021, published 2023).

Columns and labels:
[1] = physchem; details: Fasted State Simulated Intestinal Fluid (FaSSIF)
[2] = physchem; details: 0.1 M HCl aqueous solution, pH 1.08, simulated gastric fluid

solubility [1]: ~220 µg/mL (≈ 462 µM)
solubility [2]: > 1000 µg/mL
Structure (SMILES): Cc1cnc(NC(=O)[C@H]2CCC[C@@H](NC(=O)CC#N)C2)cc1-c1cc(F)c2ncn(C(C)C)c2c1 [Example 80, (1S,3R)-3-(2-cyanoacetamido)-N-(4-(4-fluoro-1-isopropyl-1H-benzo[d]imidazol-6-yl)-5-methylpyridin-2-yl)cyclohexane-1-carboxamide]

In brackets after ≈: the same amount, converted by molar mass.
